Assay results published in patent publication US12116397B2, “IL-IR-I binding polypeptide” (Swedish Orphan Biovitrum AB (publ), dated 2024).

B1: anakinra (Kineret) (other)
chain: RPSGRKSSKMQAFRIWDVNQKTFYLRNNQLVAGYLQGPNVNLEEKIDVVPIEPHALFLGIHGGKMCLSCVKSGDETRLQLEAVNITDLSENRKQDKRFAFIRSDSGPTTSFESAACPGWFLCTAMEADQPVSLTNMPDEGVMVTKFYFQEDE
B2: anakinra (ligand)
chain: B1 chain

Tests used:
Experiment in all cases: cell-based or functional assay
[1] = target: IL-1R-I on human cells (Normal Human Dermal Fibroblasts; human whole blood) (human, UniProt P14778)
IL-1R-I on TF-1 cells = IL-1R-I on TF-1 cells (Homo sapiens (Human), UniProt P14778)
[2] = target: human IL-1R-I on Normal Human Dermal Fibroblasts (NHDF) cells (human, UniProt P14778)

Binder | median IC50, inhibition of IL-1β induced IL-6 release in human whole blood [1] | median IC50, inhibition of IL-1β induced IL-6 release in human whole blood (figure legend) [1] | IC50, inhibition of IL-1β induced proliferation of TF-1 cells (IL-1R-I on TF-1 cells) | IC50 of inhibition of IL-1β induced IL-6 release in NHDF cells [2]
B1 | 0.31 nM | 0.3 nM | 0.05 nM | –
B2 | – | – | – | 0.07 nM
